Data: patent US9607202B2, “Methods of generating trophectoderm and neurectoderm from human embryonic stem cells” (UNIVERSITY OF PITTSBURGH—OF THE COMMONWEALTH SYSTEM OF …, priority 2009, dated 2017)

Test system: hESCs
Assay: hESC viability and OCT4 expression in minimal induction media
Type: cell-based, human
Details: addition to minimal induction media with or without heparin
From the text: A media was designed to serve as a foundation for differentiation with two criteria: high viability and minimal exogenous pluripotency factors that would otherwise compete with differentiating factors. Two candidate starting media from which to devise a minimal basal media for TE-induction studies included StemPro, used primarily for hESC pluripotency maintenance, and RPMI with KSR (Zhang et al., 2008), a TE-supportive media. […] Thus, to maintain compatibility with StemPro-cultured hESC, a DMEM/F12-based minimal induction media (MIM, Table 1) was developed by testing short-term hESC viability (FIG. 7) and OCT4 expression (FIG. 2) after systematically reintroducing cell survival, but not pluripotency, components. […] Thus, MIM with heparin (Erb's Minimal Induction Media, EMIM) became a second candidate minimal media for TE-induction studies.
One criterion for derivation of a minimal induction media was that hESCs would be viable and continue to express the OCT4 pluripotency marker. […] Thus, MIM and EMIM provided a growth factor-deficient basal media that maintained hESC-competence for lineage-specific induction in the short-term (4 days) as determined by the presence of a pluripotent hESC morphology, continued OCT4 expression (FIGS. 2B-D) and the absence of TE-, mesoderm-, and extraembryonic endoderm-induction (FIGS. 2D and 9B).

In the case of “human recombinant albumin: human recombinant albumin media additive”, the hESC survival is reported as “reduced hESC survival”.
